BindingDB's records for PubMed 6248635 (Stanford University, 1980)
Values joined by “and” are separate entries in the source; they are usually repeats but may differ in a detail not shown here. Equal entries are not always repeated.

Amino acid sequences for entries named in this document (tags omitted).
UniProt P79350, whole entry: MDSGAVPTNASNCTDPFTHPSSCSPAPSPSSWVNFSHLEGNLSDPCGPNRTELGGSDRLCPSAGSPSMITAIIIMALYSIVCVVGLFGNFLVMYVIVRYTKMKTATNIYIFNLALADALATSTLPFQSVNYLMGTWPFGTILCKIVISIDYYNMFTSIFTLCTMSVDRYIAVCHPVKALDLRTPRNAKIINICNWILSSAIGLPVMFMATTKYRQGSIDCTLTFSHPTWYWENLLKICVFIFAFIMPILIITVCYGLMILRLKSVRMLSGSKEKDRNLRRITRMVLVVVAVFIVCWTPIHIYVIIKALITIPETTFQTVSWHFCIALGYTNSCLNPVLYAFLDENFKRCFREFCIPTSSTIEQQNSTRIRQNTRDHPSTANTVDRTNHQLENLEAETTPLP

Target: Mu-type opioid receptor (Bos taurus, UniProt P79350)

CN1CC[C@]23c4c5ccc(O)c4O[C@H]2[C@@H](O)CCC3[C@H]1C5 (stereo partly specified) [DIHYDROMORPHINE]
Ki: 1.7 nM and 13.2 nM
